In assay [1] the target is T1, thrombin from human plasma (Homo sapiens, UniProt P00734). Description: Vmax-based thrombin inhibition assay (200 μM S-2238). The assay is classed as biochemical. The arrangement: from tissue; host or cells: human plasma.
Assay [2] has as its target T1, thrombin from human plasma. The experiment in a line: Km-based chromogenic thrombin inhibition assay (S-2238). The assay is classed as biochemical. Also noted: from tissue; host or cells: human plasma. An excerpt:
Specifically, a Km-based chromogenic assay was first employed. […] Measurements at 405 nm are designed to detect the thrombin-induced liberation of p-nitroaniline from the S-2238 substrate. As such, an observed increase in absorbance at 405 nm directly correlates with an increase in hydrolysis of the substrate by thrombin.

In assay [3] the target is T1, thrombin from human plasma. Description: Km-based inhibition assay for thrombin with conjugated HSA (10 μM S-2238). The format is biochemical. The arrangement: from tissue; host or cells: human plasma. On the procedure: Reaction conditions for conjugation of HSA with an NHS ester derivative of argatroban: 5 μM HSA was incubated with 235 μM of NHS ester of argatroban in 1.5 DMSO, 1.5% ethanol in PBS, pH 7.4 for 1.5 hours at room temperature. At this point, the unreacted ester in the sample was quenched by addition of 1.2 mM hydroxylamine and held at room temperature for 30 minutes. Conjugated HSA was desalted on a kwiksep column to remove any unbound forms of the argatroban derivative and concentrated using a centricon-10 column to approximately the initial reaction volume. Appropriate analogous procedures were followed for controls using 1) underivatized HSA protein and 2) HSA protein processed with prequenched argatroban NHS ester.
In a Km-based inhibition assay for thrombin from human plasma, 2.5 mU of thrombin in 10 μl of 0.1% polyethylene glycol 8000 (PEG) in PBS, pH 7.2, were added to 240 μl of PBS containing as final concentrations 10 μM S-2238 hydrolysis substrate, 1% DMSO, 0.1% PEG, and with or without 40 μg/ml HSA. HSA proteins tested included HSA conjugated with an NHS ester of argatroban, HSA processed with hydroxylamine prequenched NHS ester of argatroban and HSA processed through the same incubations and desaltings used to remove residual or free acid forms of the NHS ester of argatroban as in the above samples. The rate of substrate hydrolysis by thrombin was nearly linear for the first ten minutes in all cases, as measured by an increase in absorbance at 405 nm from the production of free p-nitroaniline. In duplicate wells 1) lacking HSA or 2) containing underivatized HSA or 3) containing HSA processed with quenched NHS ester of argatroban, the rate of hydrolysis of substrate was indistinguishable between samples and ranged from 0.94 to 1.08 mOD/minute. In duplicate wells containing HSA conjugated with the NHS ester of argatroban, the rate of hydrolysis of substrate ranged from 0.66 to 0.71 mOD/minute, thus, 32% inhibited compared to controls.
In a second independent experiment, HSA was again conjugated with argatroban-C12 NHS ester (compound YL-015-11). […]

Assay [4] concerns anti-KLH-argatroban antibody. Description: Sandwich ELISA using polyclonal anti-KLH-argatroban antibodies. The assay is classed as binding, rabbit. On the procedure: Materials and Methods: Human serum albumin (HSA, Sigma catalog no. A-8763) or human glycophorin A (hGPA) protein at a concentration of 300 μg/ml was reacted with 100 μM argatroban-C6 NHS ester (compound YL-015-35) in PBS, pH 7.4, for 1 hour at room temperature. The reaction was quenched by adding hydroxylamine, pH 7.8 to a final concentration of 50 mM and incubating at room temperature for 10 minutes. Prequenched negative control samples were of the same composition except that the argatroban-C6NHS ester derivative was reacted with hydroxylamine for 10 minutes prior to the addition of HSA or hGPA protein. Finally, the HSA or hGPA only samples had DMSO added to 1% to mimic addition of argatroban derivative solutions and was incubated and quenched the same as other reactions. […]
Finally, 100 μl/well of o-phenylenediamine dihydrochloride (OPD, Sigma, catalog no. P-3804) was added at 0.5 mg/ml in citrate-phosphate buffer, pH 5.3 with 0.015% H2 02 and incubated at room temperature for 15 -20 minutes. Then, 100 μl/well of 2 N sulfuric acid (VWR, catalog no. VW3500-1) was added and absorbance read at OD490 in a SpectraMax plate reader (Molecular Devices) after agitating the plate for 5 seconds. […]

The subject of assay [5] is thrombin. Description: Sandwich ELISA for thrombin binding of conjugated proteins (anti-thrombin detection). Particulars: for increase of OD490 versus prequenched ester or HSA alone: thrombin/anti-thrombin ELISA. On the procedure: Materials and Methods: Human serum albumin (ISA, Sigma Cat. #A-8763) at a concentration of 333 μg/ml or rabbit serum albumin (RSA, Sigma Cat #A-9438) at a concentration of 300 μg/ml was reacted with 100 μM argatroban-C6 or -C12 NHS ester (compounds YL-015-35 or YL-015-11, respectively) in PBS, pH 7.4, for 1 hour at room temperature. The reaction was quenched by the addition of hydroxylamine, pH 7.8 to a final concentration of 50 mM and incubation at room temperature for 10 minutes. Prequenched negative control samples were of the same composition except that the argatroban NHS ester was reacted with hydroxylamine for 10 minutes prior to the addition of HSA or RSA. Finally, the HSA or RSA only sample had DMSO added to 1% to mimic the addition of argatroban NHS ester solutions and was incubated and quenched the same as the other reactions.
Rabbit anti-HSA (Boehringer/Mannheim, catalog no. 605001) or goat anti-RSA (Cappel, catalog no. 55629) antibodies were diluted 1:5000 in PBS, pH 7.4 and 100 μl/well was aliquotted into a NUNC Maxisorp F96 plates (catalog no. 439454). The plate was incubated overnight at 4° C., then blocked by the addition of 200 μl/well of 1% BSA/PBS and incubated at room temperature for 1 hour. The plate was then washed 5 times by submersion in PBS, pH 7.4.
The various HSA/argatroban derivative or RSA/argatroban derivative samples were serially diluted in 1% BSA/PBS (1:100 to 1:50,000) and 100 μl/well was added to duplicate wells of each sample dilution. Samples were incubated on the plates for 2 hours at room temperature and the plates were then washed as above.
Thrombin (Via Enzymes Systems, 11.4 mg/ml) was diluted to 9.4 μg/ml in PBS, pH 7.4, with 0.1% BSA/0.1% PEG 8000 (Sigma, catalog no. P-2139) and 100 μl/well was added. The plates were incubated at room temperature for 1 hour and washed as above.
Mouse anti-thrombin (American Diagnostics, catalog no. EST-7), an antibody thought to bind away from the active site of thrombin, was diluted to 1 μg/ml in PBS, pH 7.4, with 0.1% BSA/0.1% PEG 8000 and 100 μl/well was added to all wells. The plates were incubated at room temperature for 30 minutes and washed as above.
Biotinylated rabbit anti-mouse IgG (mouse gamma specific, Zymed, catalog no. 61-6540) was diluted 1:1000 in PBS, pH 7.4, with 0.1% BSA and 1% PEG 8000 and 100 μl/well was added to all wells. The plates were incubated at room temperature for 30 minutes and washed as above.
Next, 100 μl/well of ABC-HRP (Vector, catalog no. PK4000) was added, each component diluted 1:500 in PBS, pH 7.4, with 0.1% TWEEN 20 and incubated 30 minutes at room temperature prior to use. PEG 8000 was added to 0.1% just before addition of ABC-HRP to the plates. The plates were incubated with ABC-HRP for 30 minutes at room temperature and were then washed 10 times by submersion in PBS, pH 7.4. […]
Finally, 100 μl/well of o-phenylenediamine dihydrochloride (OPD, Sigma, catalog no. P-3804) was added at 0.5 mg/ml in citrate-phosphate buffer, pH 5.3 with 0.015% H2 02 and incubated at room temperature for 30 minutes. After incubation, 200 μl/well of 2 N sulfuric acid (VWR, catalog no. VW3S00-1) was added and absorbance was read at OD490 in a SpectraMax plate reader (Molecular Devices) after agitating the plate for 5 seconds. […]
(ELISA stands for enzyme-linked immunosorbent assay.)

The IC50 is the point on the concentration scale where inhibition reaches its midpoint. With `CC1CNc2c(cccc2S(=O)(=O)N[C@@H](CCCNC(=N)N)C(=O)N2CC[C@@H](C)C[C@@H]2C(=O)O)C1` (stereo partly drawn) [argatroban, reference compound], the IC50 in assay [1] was determined as 250 nM; in assay [2], 20 nM.
For the compound “HSA conjugated with the NHS ester of argatroban: 5 μM HSA incubated with 235 μM of NHS ester of argatroban, quenched with hydroxylamine and desalted”, the “inhibition of thrombin compared to controls” value in assay [3] (40 μg/ml HSA, 10 μM S-2238, 2.5 mU thrombin) is listed as 32%.
On to “HSA reacted with argatroban-C6 NHS ester: human serum albumin reacted with 100 μM argatroban-C6 NHS ester (YL-015-35)”, for which the “increase of OD490 versus prequenched ester or protein alone” value in assay [4] (HSA and hGPA samples, FIGS. 5-8) is recorded as “significant increase of OD490”. Also, the “concentration at which a significant signal above background was detected” value was “approximately 13 ng/ml” in assay [4] (HSA, FIG. 5) and “approximately 10 ng/ml” in assay [5] (HSA conjugate, FIG. 2). For the same compound, the “OD of C6 relative to C12 derivatized compound” value in assay [5] (HSA conjugate, at saturation, FIG. 2) is on record as 6-7 fold. Also, the “increase of OD490 versus prequenched ester or HSA alone” value in assay [5] is given as “significant increase of OD490”.
Turning to “HSA reacted with argatroban-C12 NHS ester: human serum albumin reacted with argatroban-C12 NHS ester (YL-015-11)”, the “inhibition of thrombin activity relative to control samples” value in assay [3] (second independent experiment, HSA 40 mg/ml) is reported as 15-20%. In assay [3] (second independent experiment, HSA 80 mg/ml), the “inhibition of thrombin activity compared to control samples” value is listed as 35-42%. Further, in assay [5] (HSA conjugate, FIG. 2), the “concentration at which a significant signal above background was detected” value is “approximately 10 ng/ml”. Also, the “increase of OD490 versus prequenched ester or HSA alone” value in assay [5] is “significant increase of OD490”.

(Values after patent US6087375A, “Methods of treating or preventing thromboses” (priority 1999, dated 2000).)
